# Earlier results, collected in paper PMC10883292, “Estrogen Receptor Mutations as Novel Targets for Immunotherapy in Metastatic Estrogen Receptor–positive Breast Cancer” (Cancer Research Communications, 2024).
# Legend:
# [1] = system: HER2-low-expressing cancer; details: multicenter phase III, HER2-low (1–2+ by IHC); cited from earlier work
# Description: (§1) Our findings pave the way for the development of ESR1 targeted immunotherapy. One approach could be vaccine development, as we were able to expand CD8^+ T cells to target these five novel peptides. […] E75, a nanomeric peptide derived from HER2, has been used in multiple clinical trials for breast, ovarian, and gastric cancers, many of which were led by our group.
# [2] = system: high-risk HER2+ breast cancer; details: 187 patients, adjuvant setting; cited from earlier work
# Description: as §1
substance,measurement,setting,value
"E75: nanomeric peptide derived from HER2, used as vaccine",clinical benefit as monotherapy,[1],failed to demonstrate the clinical benefit
same,reduction of relative risk of recurrence,[2],48%
